# Tested on: tubulin
# Test: Re-assembly of labeled tubulin to high MW tubulin oligomers
# Assay type: biochemical, rat
# Details: 10 μM; prolonged incubation at 37° C.; data not shown
compound,measurement,value
COc1cc2c(c(OC)c1OC)-c1ccc(OC)c(=O)cc1[C@@H](NC(C)=O)CC2 [colchicine],formation of high MW tubulin oligomers,completely abolished
